Results published in patent US20150202186A1, “CYSTATHIONINE-(gamma)-LYASE (CSE) INHIBITORS FOR TREATING PAIN” (SOVA PHARMACEUTICALS, INC., priority 2014, published 2015).

Protein sequences, listed by entry. Tags and fused reporters are not part of them.
UniProt P32929, whole entry, looked up: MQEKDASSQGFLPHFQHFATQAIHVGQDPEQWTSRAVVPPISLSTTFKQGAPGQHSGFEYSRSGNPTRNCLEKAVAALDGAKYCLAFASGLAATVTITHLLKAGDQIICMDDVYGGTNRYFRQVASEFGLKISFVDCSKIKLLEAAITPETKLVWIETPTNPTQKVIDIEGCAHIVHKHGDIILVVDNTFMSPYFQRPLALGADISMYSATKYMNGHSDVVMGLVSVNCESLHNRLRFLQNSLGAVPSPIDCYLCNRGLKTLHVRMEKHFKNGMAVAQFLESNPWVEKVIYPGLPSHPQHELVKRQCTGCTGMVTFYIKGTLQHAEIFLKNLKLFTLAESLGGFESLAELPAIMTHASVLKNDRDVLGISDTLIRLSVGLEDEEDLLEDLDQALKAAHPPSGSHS

Target: recombinant CSE (cystathionine-γ-lyase) (UniProt P32929)
Assay: CSE In Vitro Assay
Details: recombinant CSE 20 ug/ml, 50 uM PLP, DL-Homocysteine substrate, 3 hours at 37° C., absorbance at 671 nm

## NN(CCCc1nnn[nH]1)c1nnn[nH]1
  IC50: 25 to 100 µM
